# Test results as given in patent US8546322B2, “Inhibitors of intracellular urokinase plasminogen activator and methods of use thereof” (The Regents of the University of California, priority 2007, dated 2013).
# Amino acid sequences for entries named in this document (tags omitted). Residues count along the entry.
# UniProt P00750, 36-562 limits assumed: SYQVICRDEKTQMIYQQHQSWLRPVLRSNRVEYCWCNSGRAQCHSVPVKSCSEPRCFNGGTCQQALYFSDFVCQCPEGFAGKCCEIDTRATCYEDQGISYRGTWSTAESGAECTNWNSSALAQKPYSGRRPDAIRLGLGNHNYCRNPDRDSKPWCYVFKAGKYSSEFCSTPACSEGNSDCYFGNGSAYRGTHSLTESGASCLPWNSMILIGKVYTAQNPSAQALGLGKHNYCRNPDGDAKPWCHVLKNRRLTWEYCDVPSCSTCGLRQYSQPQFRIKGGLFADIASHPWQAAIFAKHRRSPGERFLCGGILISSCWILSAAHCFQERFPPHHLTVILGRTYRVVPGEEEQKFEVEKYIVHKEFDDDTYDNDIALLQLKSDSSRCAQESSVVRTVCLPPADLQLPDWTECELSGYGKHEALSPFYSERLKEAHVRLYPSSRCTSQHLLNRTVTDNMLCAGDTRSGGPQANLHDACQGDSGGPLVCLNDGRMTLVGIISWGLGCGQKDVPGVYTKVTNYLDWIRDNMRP
# UniProt P19634, whole entry: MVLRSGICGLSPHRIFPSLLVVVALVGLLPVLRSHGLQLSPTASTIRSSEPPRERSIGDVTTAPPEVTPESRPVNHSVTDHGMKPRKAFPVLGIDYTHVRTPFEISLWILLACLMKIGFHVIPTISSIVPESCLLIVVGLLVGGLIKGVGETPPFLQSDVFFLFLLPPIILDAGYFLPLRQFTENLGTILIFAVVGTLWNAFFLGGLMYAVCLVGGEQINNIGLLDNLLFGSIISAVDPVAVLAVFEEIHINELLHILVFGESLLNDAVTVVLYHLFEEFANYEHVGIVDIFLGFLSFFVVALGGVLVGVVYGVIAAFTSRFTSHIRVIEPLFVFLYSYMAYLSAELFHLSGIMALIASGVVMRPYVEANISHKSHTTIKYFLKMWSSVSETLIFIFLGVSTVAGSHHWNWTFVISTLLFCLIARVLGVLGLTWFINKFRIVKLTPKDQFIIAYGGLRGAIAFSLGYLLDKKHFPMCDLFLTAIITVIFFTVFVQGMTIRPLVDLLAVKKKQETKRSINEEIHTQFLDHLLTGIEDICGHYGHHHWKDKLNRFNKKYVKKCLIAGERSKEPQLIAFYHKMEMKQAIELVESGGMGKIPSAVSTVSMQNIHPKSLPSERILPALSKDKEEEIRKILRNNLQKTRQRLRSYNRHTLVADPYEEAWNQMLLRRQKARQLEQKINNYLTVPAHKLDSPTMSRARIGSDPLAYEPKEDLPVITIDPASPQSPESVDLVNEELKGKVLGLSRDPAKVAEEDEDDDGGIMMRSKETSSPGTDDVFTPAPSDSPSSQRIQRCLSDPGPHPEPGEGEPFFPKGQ
# Columns and labels:
# U87 glioma cells [1] = experiment: U87 glioma cell adherence to extracellular matrix (ECM)
# U87 glioma cells [2] = experiment: U87 proliferation and survival, tetrazolium (WST) live cell assay and manual cell counts; conditions: for proliferation after drug removal at 24 h (in words): drug removed at 24 h, read at 48 h
# U87 glioma cells [3] = experiment: U87 cell death, manual cell counts with trypan blue exclusion; assay type: cell-based, human; conditions: for glioma cell death / viability (in words): 48 h
# uPA = uPA (Homo sapiens, UniProt P00749); experiment: uPA enzymatic inhibition with peptide-specific fluorogenic substrates; assay type: biochemical
# tPA = tPA (Homo sapiens, UniProt P00750); experiment: tPA enzymatic inhibition; conditions: listed as AmC(5)-GlyOBn
# [4] = test system: gelatinases expressed by U87 glioma cells (MMP-2, MMP-9); experiment: Gelatinase (MMP-2, MMP-9) inhibition; conditions: listed as AmC(5)-GlyOBn
# NHE1 = NHE1 (Homo sapiens, UniProt P19634); experiment: Sodium-proton exchange (NHE1) inhibition in glioma cells (BCECF fluorometry)
# U87 glioma cells [5] = experiment: Cell permeation by fluorescent microscopy of U87 glioma cells; assay type: cell-based; conditions: 50 μM, 90-180 min incubation
# glioma cells [6] = experiment: Glioma cell volume in vitro and in intracerebral xenografts (7 tesla NMR)
# glioma cells [7] = experiment: Glioma cell invasion
# [8] = test system: normal primary astrocytes; experiment: Effect on normal primary astrocytes; assay type: cell-based
# [9] = test system: intracerebral human U87 glioma xenografts; experiment: Intracerebral U87 glioma xenograft growth (NMR, stereology); assay type: in vivo, athymic rats
# [10] = Neuropathology and behaviour with intracranial administration; assay type: in vivo; conditions: for neuropathological changes in normal brain cell types (in words): intracranial administration, 10-14 days
# Excerpt: […]. For amiloride, parasaggital sections were stained with hematoxylin and eosin in addition to using specialized stains for neuronal damage (FluoroJade) and for myelinated fiber tracts (luxol fast blue). […]. There were no premature deaths.
# . Each experimental and control group described below consist of a minimum of 10 animals per group. Experimental Design. The in vivo toxicity studies initially employ single, daily intracranial infusions of the candidate compound into a group of Sprague-Dawley rats for 13 days. Treated S-D animals are compared to a group of 10 control animals receiving intracranial drug vehicle injections. The infused drug concentration is based upon the cell line studies and adjusted for the low protein content of the cerebrospinal fluid which is 0.2% that of serum. Animals are behaviorally assessed for toxicity. […]. General Health and Behavioral Studies. Body weights and behavioral parameters are assessed daily in drug-treated and vehicle-treated rats during 12 day treatment paradigms. Currently, standardized behavior tests are used, which include quantitative measures of vestibulomotor function, fine motor coordination, ambulation, and spatial memory. A daily neurotoxicity behavioral sign checklist (72) to detect neurological signs of toxicity and seizures is also performed. Acquisition of spatial memory is particularly sensitive for detecting subtle drug toxicities (Preliminary Results). Body weight is used as a measure of general health. Neuropathological Studies: Cytological studies are performed in the same drug-treated and vehicle-treated rats at the conclusion of behavioral testing. Fixation and sectioning techniques are described in the Experimental Methods section. Hematoxylin and eosin are used routinely to survey for neuropathological changes. Luxol fast blue stains myelin tracts to evaluate potential white matter changes. […] Assessment of brainstem white matter tracts with luxol fast blue staining includes the spinocerebellar, vestibulospinal, corticospinal, spinothalamic. Specialized stains for reactive astrocytes, neuronal chromatolysis, etc. are added if brain lesions are detected. […]. Potential Problems and Alternatives. […]. However, there were problems with spatial memory that persisted throughout the nine day infusion period. These behavioral studies indicate the need to behaviorally assess treatment of the glioma tumor models.
# [11] = 300 pmol/d intracranial once daily, day 1 to 10 postimplantation, 14 xenografts
compound,measurement,setting,value
N=C(N)NC(=O)c1nc(Cl)c(NCC(=O)OCc2ccccc2)nc1N,glioma cell adherence to ECM (in words),U87 glioma cells [1],significant inhibition of adherence to ECM
same,% of control attachment at 4 h,"U87 glioma cells [1]; 250 microM, U87 cells on ECM, 4 h",15 ± 5 %
same,cell numbers as % of control at 48 h (WST assay),"U87 glioma cells [2]; 250 microM, 48 h treatment",6%
same,reduction in viable cell numbers (WST live cell assay),U87 glioma cells [2]; after 48 h,84%
same,proliferation after drug removal at 24 h (in words),U87 glioma cells [2]; listed as AmC(5)-Gly-OBn,permitted glioma cells to resume proliferation
same,proliferation after drug removal at 24 h (in words),U87 glioma cells [2]; listed as AmC(5)-GlyOBn,inhibition of proliferation was reversed by 48 h
same,glioma cell proliferation (in words),U87 glioma cells [2]; listed as AmC(5)-Gly-OBn,inhibited proliferation
same,glioma cell proliferation (in words),U87 glioma cells [2]; listed as AmC(5)-GlyOBn,inhibited
same,"% cell death, trypan blue","U87 glioma cells [3]; 250 microM, 48 h treatment",(84) %
same,glioma cell death / viability (in words),U87 glioma cells [3]; listed as AmC(5)-Gly-OBn,caused subsequent glioma cell death by 48 h
same,glioma cell death / viability (in words),U87 glioma cells [3]; listed as AmC(5)-GlyOBn,caused U87 glioma cell demise at 48 h
same,inhibition of uPA (in words),uPA,reversibly and comparably inhibit
same,IC50,"uPA; read-out: IC50, inhibition of intracellular glioma uPA, intracellular glioma uPA",7.5 µM
same,inhibition of tPA (in words),tPA,does not inhibit
same,"inhibition of gelatinases MMP-2, MMP-9 (in words)",[4],does not inhibit
same,inhibition of NHE1 (in words),NHE1,reversibly and comparably inhibit
same,inhibition of NHE1 (in words),NHE1; listed as AmC(5)-Gly-OBn,same potencies of AmC(5)-Gly
same,cell permeation (in words),U87 glioma cells [5],permeates glioma cells
same,cell permeation (in words),U87 glioma cells [5]; listed as AmC(5)-Gly-OBn,cell permeant
same,cell permeation (in words),U87 glioma cells [5]; listed as AmC(5)-GlyOBn,rapidly permeates cells
same,glioma cell volume (in words),glioma cells [6],shrink glioma cell volumes
same,glioma cell invasion (in words),glioma cells [7],inhibits
same,effect on normal primary astrocytes (in words),[8],no effect
same,tumors with marked retardation in the initial rates of tumor growth,[9]; [11],57%
same,xenografts that failed to become established,[9]; [11],43%
same,mean tumor volume at 10d postimplantation relative to vehicle-treated controls,"[9]; 3 days pretreatment, then once daily intracranial for 10 days, 6 treated animals",< 30%
same,treated animals without demonstrable tumors (stereology),"[9]; 3d pre-treatment, then daily intrathecal 300 pmol/d for 10d",Three of the seven
same,xenograft tumor growth (in words),[9]; intracranial administration,prevented or significantly impaired U87 tumor proliferation
same,behavioral side effects and seizures (in words),[10]; efficacious intracranial administration,but not
same,neuropathological changes in normal brain cell types (in words),[10]; listed as AmC(5)-Gly-OBn,no effect
same,neuropathological changes in normal brain cell types (in words),[10]; listed as AmC(5)-GlyOBn,Neuropathological changes were not observed
same,neuropathological changes in normal brain cell types (in words),[10]; listed as AmC(5)Gly-OBn,Neither compound produces neuropathological changes

# Where two headings read alike, the source gives them in different places.
